Measured values reported in ChEMBL document CHEMBL6078710, “Design, synthesis and biological evaluation of new SIRT3 activators for the treatment of triple-negative breast cancer” (Bioorg Med Chem, 2025).
Blank lines part the entries; values can stand above or below the compound they belong to.

Key:
[1] = target: T1, NAD-dependent protein deacetylase sirtuin-3, mitochondrial (Homo sapiens) (UniProt Q9NTG7); test: Activation of SIRT3 (unknown origin) at 10 uM; details: filed as activator
T1 sequence (whole entry): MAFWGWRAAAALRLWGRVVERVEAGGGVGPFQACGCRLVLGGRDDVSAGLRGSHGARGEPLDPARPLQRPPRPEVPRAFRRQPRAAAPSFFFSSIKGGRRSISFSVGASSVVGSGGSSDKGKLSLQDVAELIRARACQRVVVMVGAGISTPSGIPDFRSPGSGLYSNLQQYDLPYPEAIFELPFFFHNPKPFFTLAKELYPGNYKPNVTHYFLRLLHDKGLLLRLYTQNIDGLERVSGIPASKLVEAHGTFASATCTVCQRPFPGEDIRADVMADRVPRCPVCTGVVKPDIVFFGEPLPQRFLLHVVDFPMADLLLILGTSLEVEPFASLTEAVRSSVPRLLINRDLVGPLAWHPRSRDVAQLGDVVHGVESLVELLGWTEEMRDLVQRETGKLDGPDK

MCF7 = test: Cytotoxicity against human MCF7 cells assessed as reduction in cell viability; format: toxicity, cell-based
[2] = target: T1, NAD-dependent protein deacetylase sirtuin-3, mitochondrial (Homo sapiens); test: Agonist activity at SIRT3 (unknown origin) deacetylation activity assessed as fold change at 50 uM incubated for 30 mins; details: filed as agonist

SMILES: CCCCCNC(=O)c1c(N)n(Cc2ccc(F)cc2)c2nc3ccccc3nc12
Activity [1]: 150%

SMILES: CCOC(=O)C1=CN(C(=O)c2ccc(OC)c(OC)c2)C=C(C(=O)OCC)C1c1cnc(Cl)c(Cl)c1
Activity (MCF7): Toxic

fold change (FC) [2]: 20
SMILES: CCOC(=O)C1=CN(C(=O)c2cc(OC)c(OC)c(OC)c2)C=C(C(=O)OCC)C1c1ccc(S(C)(=O)=O)cc1
